Test results published in publication PMC9798004 (Frontiers in Psychiatry, 2022).

Protein sequences, listed by entry. Tags and fused reporters are not part of them. Residues count along the entry.
UniProt P22888, 27-699: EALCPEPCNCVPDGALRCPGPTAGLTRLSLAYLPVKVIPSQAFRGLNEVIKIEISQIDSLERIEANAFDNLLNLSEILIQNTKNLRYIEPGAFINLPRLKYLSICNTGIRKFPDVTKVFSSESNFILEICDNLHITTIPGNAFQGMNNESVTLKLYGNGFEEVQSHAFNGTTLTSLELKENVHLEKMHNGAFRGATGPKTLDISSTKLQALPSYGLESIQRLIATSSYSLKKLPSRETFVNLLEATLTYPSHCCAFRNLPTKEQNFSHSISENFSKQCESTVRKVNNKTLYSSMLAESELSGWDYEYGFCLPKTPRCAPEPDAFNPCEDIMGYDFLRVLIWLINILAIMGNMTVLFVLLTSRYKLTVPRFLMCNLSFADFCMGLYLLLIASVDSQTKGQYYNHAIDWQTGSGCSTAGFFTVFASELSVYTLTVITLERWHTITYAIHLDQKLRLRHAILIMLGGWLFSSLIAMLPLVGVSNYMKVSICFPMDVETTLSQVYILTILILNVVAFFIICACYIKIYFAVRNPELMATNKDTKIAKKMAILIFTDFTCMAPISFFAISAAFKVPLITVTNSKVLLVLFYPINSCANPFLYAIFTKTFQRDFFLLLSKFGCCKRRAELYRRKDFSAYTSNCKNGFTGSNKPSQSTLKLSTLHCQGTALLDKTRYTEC

How the values were obtained:
TSHR(L) = biological target: T1, TSHR(L) (Homo sapiens, UniProt P16473); assay: PathHunter β-arrestin assay; format: cell-based; conditions: screen, control agonist; U2OS, RT, 4HR
T1 construct: purchased Eurofins DiscoverX (PathHunter gpcrMAX)

LHCGR = biological target: T2, LHCGR (Homo sapiens, UniProt P22888); assay: PathHunter β-arrestin assay; format: cell-based; conditions: screen, control agonist; CHO, 37C, 2HR
T2 construct: purchased Eurofins DiscoverX (PathHunter gpcrMAX)

Substance | EC80 (TSHR(L)) | EC80 (LHCGR)
TSH: control agonist for TSHR(L) | 29.3 nM | 
hCG: control agonist for LHCGR |  | 4.38 nM
